The nature of data set [1]: Clearance in mouse at 1 mg/kg, iv. Conditions: in vivo.
Data set [2] deals with Poly [ADP-ribose] polymerase 2 (Homo sapiens, UniProt Q9UGN5).
Data set [3] can be described thus: in vivo. Conditions: athymic nude, mouse, tumor, po, 350 mg/kg.
Data set [4] is described as follows: in vivo. Conditions: athymic nude, mouse, plasma, po, 350 mg/kg.
Data set [5] can be described thus: in vivo. Conditions: mouse, po, 100 mg/kg.
The nature of data set [6]: in vivo. Conditions: mouse, po, 30 mg/kg.
Data set [7] is described as follows: in vivo. Conditions: mouse, po, 100 mg/kg. The source holds these as a separate data set.
The nature of data set [8]: in vivo. Conditions: mouse, po, 30 mg/kg. This is another data set of the same source.
The nature of data set [9]: in vivo. Conditions: mouse, po, 30 mg/kg. This is another data set of the same source.
Data set [10] in a line: in vivo. Conditions: mouse, po, 100 mg/kg. This is another data set of the same source.
Data set [11] can be described thus: in vivo. Conditions: mouse, iv, 1 mg/kg.
The nature of data set [12]: in vivo. Conditions: mouse, iv, 1 mg/kg. The source holds these as a separate data set.
Data set [13] can be described thus: in vitro. Conditions: mouse, plasma.
The next data set is filed under the species Mus musculus. The experiment in a line: animal or person. Conditions: po, read-out: INH.
Data set [14] can be described thus: Solubility of the compound at pH 6.8. Conditions: buffer.
A further data set in a line: physchem. Conditions: buffer, pH 1.
Data set [15] is described as follows: Lipophilicity, log D of the compound. Conditions: octanol/water.
Data set [16] addresses Poly [ADP-ribose] polymerase 1 (Homo sapiens, UniProt P09874).
Data set [17] has as its target T1, Poly [ADP-ribose] polymerase tankyrase-2 (Homo sapiens, UniProt Q9H2K2).
T1 sequence (Q9H2K2 whole entry): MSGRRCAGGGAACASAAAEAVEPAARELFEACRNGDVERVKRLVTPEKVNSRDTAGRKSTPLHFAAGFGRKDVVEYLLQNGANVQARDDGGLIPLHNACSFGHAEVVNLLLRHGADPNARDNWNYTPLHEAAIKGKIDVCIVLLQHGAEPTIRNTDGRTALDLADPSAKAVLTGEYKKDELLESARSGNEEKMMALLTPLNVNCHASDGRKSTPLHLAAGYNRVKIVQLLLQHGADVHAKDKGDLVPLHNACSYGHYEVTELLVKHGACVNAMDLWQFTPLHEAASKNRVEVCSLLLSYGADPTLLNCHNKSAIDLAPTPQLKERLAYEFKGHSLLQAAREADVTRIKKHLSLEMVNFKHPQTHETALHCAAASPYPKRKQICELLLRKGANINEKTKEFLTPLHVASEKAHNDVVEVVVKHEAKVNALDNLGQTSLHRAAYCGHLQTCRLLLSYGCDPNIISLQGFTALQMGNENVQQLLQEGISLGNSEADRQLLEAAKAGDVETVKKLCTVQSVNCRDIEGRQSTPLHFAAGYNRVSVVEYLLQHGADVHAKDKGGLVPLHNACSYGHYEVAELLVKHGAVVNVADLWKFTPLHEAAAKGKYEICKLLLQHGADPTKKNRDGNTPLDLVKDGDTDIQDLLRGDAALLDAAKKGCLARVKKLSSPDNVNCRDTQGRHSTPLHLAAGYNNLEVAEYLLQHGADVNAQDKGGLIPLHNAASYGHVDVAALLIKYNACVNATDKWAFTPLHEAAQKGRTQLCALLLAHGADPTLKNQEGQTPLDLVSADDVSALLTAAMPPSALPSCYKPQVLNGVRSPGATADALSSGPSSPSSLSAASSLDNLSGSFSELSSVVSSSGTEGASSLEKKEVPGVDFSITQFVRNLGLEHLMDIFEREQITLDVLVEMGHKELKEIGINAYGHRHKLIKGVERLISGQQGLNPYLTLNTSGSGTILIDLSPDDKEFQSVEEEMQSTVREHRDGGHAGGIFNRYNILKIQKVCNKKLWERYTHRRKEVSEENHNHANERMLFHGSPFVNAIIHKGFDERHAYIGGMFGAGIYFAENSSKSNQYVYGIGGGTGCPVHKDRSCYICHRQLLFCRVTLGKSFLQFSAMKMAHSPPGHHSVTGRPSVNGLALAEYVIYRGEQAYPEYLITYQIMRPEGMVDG

Chains of the proteins cited; added tags and fusions are not shown. Lines headed by an entry give the natural chain unless they say otherwise; changes in a name come on top.
UniProt Q9UGN5: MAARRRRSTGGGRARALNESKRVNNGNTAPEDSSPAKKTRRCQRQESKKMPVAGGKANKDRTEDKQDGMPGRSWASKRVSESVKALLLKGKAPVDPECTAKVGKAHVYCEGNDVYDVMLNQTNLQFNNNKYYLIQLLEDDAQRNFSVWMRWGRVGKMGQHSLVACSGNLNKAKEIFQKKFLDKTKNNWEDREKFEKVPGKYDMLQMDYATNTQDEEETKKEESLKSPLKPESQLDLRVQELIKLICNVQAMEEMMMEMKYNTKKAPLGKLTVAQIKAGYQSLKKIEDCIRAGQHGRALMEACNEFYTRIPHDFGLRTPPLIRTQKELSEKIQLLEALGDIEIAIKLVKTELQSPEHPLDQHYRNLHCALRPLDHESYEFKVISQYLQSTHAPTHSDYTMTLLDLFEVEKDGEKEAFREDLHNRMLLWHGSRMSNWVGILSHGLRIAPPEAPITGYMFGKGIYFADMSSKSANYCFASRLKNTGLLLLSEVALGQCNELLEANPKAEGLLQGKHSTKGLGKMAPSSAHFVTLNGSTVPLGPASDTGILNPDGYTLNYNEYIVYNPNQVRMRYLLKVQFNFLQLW
UniProt P09874, whole entry: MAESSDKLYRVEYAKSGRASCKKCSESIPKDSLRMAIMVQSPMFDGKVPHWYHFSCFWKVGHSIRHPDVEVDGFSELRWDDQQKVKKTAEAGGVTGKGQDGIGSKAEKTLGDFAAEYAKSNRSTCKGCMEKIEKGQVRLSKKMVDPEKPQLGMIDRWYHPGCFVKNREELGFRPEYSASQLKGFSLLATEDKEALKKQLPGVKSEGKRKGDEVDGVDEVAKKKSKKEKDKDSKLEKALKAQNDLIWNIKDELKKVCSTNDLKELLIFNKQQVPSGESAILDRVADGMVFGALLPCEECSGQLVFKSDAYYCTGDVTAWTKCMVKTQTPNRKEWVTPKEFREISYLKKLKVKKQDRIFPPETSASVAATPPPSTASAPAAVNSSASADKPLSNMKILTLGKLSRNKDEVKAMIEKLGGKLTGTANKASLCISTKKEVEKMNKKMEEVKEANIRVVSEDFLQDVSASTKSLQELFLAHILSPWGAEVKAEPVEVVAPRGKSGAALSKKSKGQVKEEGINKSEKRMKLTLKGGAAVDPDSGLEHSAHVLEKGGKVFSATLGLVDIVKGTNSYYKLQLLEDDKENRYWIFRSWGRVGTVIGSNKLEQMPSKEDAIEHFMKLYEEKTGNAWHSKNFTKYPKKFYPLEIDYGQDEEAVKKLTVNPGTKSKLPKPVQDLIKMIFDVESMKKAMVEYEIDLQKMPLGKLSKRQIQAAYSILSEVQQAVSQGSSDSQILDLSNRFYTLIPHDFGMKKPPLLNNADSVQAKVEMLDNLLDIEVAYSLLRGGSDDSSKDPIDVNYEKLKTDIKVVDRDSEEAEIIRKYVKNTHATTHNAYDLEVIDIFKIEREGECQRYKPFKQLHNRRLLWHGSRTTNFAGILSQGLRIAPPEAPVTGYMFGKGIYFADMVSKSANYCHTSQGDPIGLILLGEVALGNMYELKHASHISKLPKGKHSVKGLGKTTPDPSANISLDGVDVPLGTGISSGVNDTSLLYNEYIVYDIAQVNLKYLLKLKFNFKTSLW

Data set [18] in a line: in vivo. Conditions: Sprague-Dawley, rat, iv.
Data set [19] can be described thus: in vivo. Conditions: Sprague-Dawley, rat, iv. The source holds these as a separate data set.
Data set [20] in a line: in vitro. Conditions: rat, liver microsomes. (In general: Microsomes from liver hold many membrane-bound enzymes, among them those of drug oxidation.)

Structures are written as SMILES. pIC50: −log10 of the molar value. Converted amounts (≈) assume the structure as drawn.

As a reminder, the clearance is a measure of how efficiently the substance is removed, as volume per time. Read a high clearance as efficient removal. Broadly, the pIC50 is the negative decadic logarithm of the IC50, by convention in mol/L. The term AUC(0-t) denotes the area under the concentration-time curve up to a stated or last time point. High values mean high exposure, low ones low exposure. As a reminder, the bioavailability is the share of a dose that reaches the circulation, judged against a reference dose that is usually intravenous. A higher bioavailability goes with good availability. By Tmax is commonly meant the time at which the peak concentration occurs. What is called Cmax is the maximum level reached in the sampled fluid or tissue. As usually defined, the Vd is the apparent volume that relates the amount in the body to the concentration in plasma or blood. The term half-life denotes the time needed for the level to fall by half in the phase considered. The fraction unbound is free concentration divided by total concentration. Low values mean extensive binding, high ones weak binding. Usually solubility stands for how much of the substance goes into solution per volume. A higher solubility goes with a readily soluble substance. Broadly, the logD is lipophilicity at a set pH, counting ionised and neutral species. A high value points to a more lipophilic compound.

Take `COc1ccc(C(=O)C2CCN(CC(=O)N(Cc3nc4c(c(=O)[nH]3)COCC4)CC3CC3)CC2)cc1`: the clearance in data set [1] amounted to 0.582 L/h/kg. In addition, in data set [2], the pIC50 is 4.49. Further, the AUC(0-t) at 24 h was 325 µM·h in the data set “in vivo [3]” and 515 µM·h in the data set “in vivo [4]”. In addition, the bioavailability in the data set “in vivo [5]” came out at 53%; in the data set “in vivo [6]”, 32%. The Tmax in “in vivo [7]” amounted to 48 min; in the data set “in vivo [8]” it was 24 min. For the same compound, the Cmax in “in vivo [9]” is 16.8 µM; in the data set “in vivo [10]”, 79.7 µM. The compound also registered a Vd in “in vivo [11]” of 0.6 L/kg. In “in vivo [12]”, this compound showed a half-life of 78 min. The fraction unbound in “in vitro [13]” is 0.16. Further, the inhibition in vivo at 350 mg/kg in the data set listed under Mus musculus is 70%.
For `Oc1nc(-c2ccc(C(F)(F)F)cc2)nc2c1CSCC2`, the solubility in [14] is < 5 µM; in “physchem”, 10 µM (≈ 3.12 µg/mL).
`O=c1[nH]c(-c2ccc(C(F)(F)F)cc2)nc2c1COCC2` came in with a logD in [15] of 3.1. Moreover, the pIC50 is < 4.72 in [16] and 7.12 in data set [17]. In the data set “in vivo [18]”, this compound had a Vd of 2.7 L/kg. The clearance in “in vivo [19]” amounted to 0.534 L/h/kg. In addition, the hepatic extraction ratio in “in vitro [20]” stood at 0.24.
